The text below walks through data of US11498974 (BIOARCTIC, dated 2022).

In assay [1] the target is RmAb158-scFv8D3. Put plainly: inhibition ELISA: serially diluted Aβ monomers pre-incubated with 50 ng/ml RmAb158-scFv8D3, then on Aβ protofibril coated plate. On the technique in general: In an ELISA, binding on a coated surface is turned into a signal by an enzyme label.
Assay [2] addresses RmAb158. Nature of the assay: inhibition ELISA with RmAb158, written as printed; monomers and protofibrils are probably swapped in the sentence.
In assay [3] the target is RmAb158-scFv8D3. Put plainly: inhibition ELISA: serially diluted Aβ protofibrils pre-incubated with 50 ng/ml RmAb158-scFv8D3, then on Aβ protofibril coated plate.

As usually defined, the IC50 is the concentration at which inhibition is half-maximal. A lower IC50 goes with higher potency.

Consider “Aβ monomers (from UniProt P05067 672-711) (peptide)”, for which the IC50 came to 400 nM in assay [1] and 1.2 nM in assay [2].

“Aβ protofibrils (from UniProt P05067 672-713) (peptide)”: the IC50 in assay [3] amounted to 0.85 nM; in assay [2], 1200 nM.
